Antibody variant affinities, Ab-14 light chain, assay 1

All variants were tested on one target, the spike HR2 peptide PDVDLGDISGINAS (SARS-CoV-2).

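Variants in AAYL50 differ from the parent at up to three CDR positions; double and triple changes were sampled at random. The scFvs were displayed on barcoded MATa yeast, the peptide on MATalpha yeast. Mating (16 h, 30 °C) was followed by selection of diploids and sequencing of their barcodes. Read counts were normalised to the haploid input and turned into Kd by a linear fit to BCL2-family pairs of known affinity, for each replicate. Mating was done three times.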

The variants keep the heavy chain, the linker and the frameworks of Ab-14 (scFv order VH, the linker GGGGSGGGGSGGGGS, VL).
VH: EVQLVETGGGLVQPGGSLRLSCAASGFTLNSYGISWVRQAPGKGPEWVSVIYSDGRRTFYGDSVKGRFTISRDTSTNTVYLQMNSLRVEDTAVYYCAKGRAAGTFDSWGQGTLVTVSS
VL: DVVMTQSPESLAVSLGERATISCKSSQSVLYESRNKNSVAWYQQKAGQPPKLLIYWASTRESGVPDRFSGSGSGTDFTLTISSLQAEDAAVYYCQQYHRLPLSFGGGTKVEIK

Variants are written as CDR1, CDR2 and CDR3 of the light chain (limits as in the source). Parent: KSSQSVLYESRNKNSVA, WASTRES, QQYHRLPLS.
Numbers give log10(Kd / nM), so 0 is 1 nM and 3 is 1 µM. Smaller is tighter.
A mean of the replicates is given; it leaves out those without a signal.
"n.d." marks a missing value. The strain was present, yet no cells mated with the target were sequenced in that replicate, which points to weak or no binding.
In this assay the parent's reference entry averaged 0.65; its copy inside this library read 1.68.
Empty control strains, which show no peptide, gave a signal in 18% of pairings with library AAYL50; the median was 4.19 and 95% of these signals were weaker than 2.99. No background was subtracted. For each scFv, signals with the empty controls are counted beside the result, with their mean in brackets.

CDR-L1,CDR-L2,CDR-L3,"replicates, log10 nM","log10 Kd (nM), mean",signal with controls
KSSQSNLYERRNKNTVA,WASTRES,QQYHRLPLS,n.d. / 4.11 / n.d.,4.11,1 of 9 (3.76)
KSSQSTLYESHNKNSVA,WASTRES,QQYHRLPLS,0.52 / 0.93 / 0.46,0.64,0 of 9
KSSQSVLRESRNKNSVA,WAPTMES,QQYHRLPLS,n.d. / n.d. / 5.40,5.40,5 of 9 (3.96)
VSSQSVLYESRNKRSVA,WASTRES,AQYHRLPLS,n.d. / n.d. / n.d.,n.d.,2 of 9 (3.66)
KSSQIVLYESNNKNSVA,WASTRES,QQYHRLPKS,1.77 / 1.92 / 2.08,1.92,6 of 9 (4.75)
KSSQSVLYESRNKNSVA,WAPTRES,QQYHRKPLS,n.d. / n.d. / n.d.,n.d.,0 of 9
KSSQSVLYESRNKPSVA,WASTREL,FQYHRLPLS,n.d. / n.d. / 5.32,5.32,1 of 9 (3.93)
KSSQSVLYGSRNPNSVA,WASTRES,QQYHGLPLS,5.40 / 4.53 / n.d.,4.96,1 of 9 (3.58)
KSSQSMLIESRNKNSVA,WASTRES,QQYHRLPLS,0.45 / 0.64 / 0.62,0.57,1 of 9 (4.46)
KSSQSCLYESRNKNSVA,WASTRES,HQSHRLPLS,1.26 / 1.19 / 1.26,1.24,1 of 9 (4.53)
KSSQSVLYESRNKNSVH,SASTRES,QQYHRLPLS,n.d. / n.d. / n.d.,n.d.,1 of 9 (3.40)
KSSQSDLYESRNKNSRA,WASVRES,QQYHRLPLS,5.25 / n.d. / 4.35,4.80,9 of 9 (4.93)
KSSQSVDYEPRNKNSVA,WASTRES,QQYHRLPGS,0.81 / 0.92 / 0.94,0.89,4 of 9 (4.85)
FSSQLVLYESCNKNSVA,WASTRES,QQYHRLPLS,4.32 / 2.22 / 2.95,3.17,1 of 9 (4.00)
KSSQSVLYESRNKNSDA,WASSRES,QKYHRLPLS,3.99 / 3.52 / n.d.,3.75,2 of 9 (4.09)
KSSVSVLYRSRNKNSVP,WASTRES,QQYHRLPLS,n.d. / n.d. / 5.46,5.46,3 of 9 (5.05)
KSSQSVLYFSRNKNSFA,WASTRES,QCYHRLPLS,n.d. / n.d. / 3.61,3.61,0 of 9
KSSQSVLYESRNKNSVA,WYSRRGS,QQYHRLPLS,5.49 / 3.33 / n.d.,4.41,1 of 9 (3.74)
FSSQSVLYESANKNSVA,WASTRES,QTYHRLPLS,2.00 / 1.98 / 2.15,2.04,4 of 9 (3.33)
KSSQSVLYESRNKQSYQ,WASTRES,QQYHRLPLS,n.d. / n.d. / n.d.,n.d.,1 of 9 (3.07)
QSSQSVLYESRNKNSVA,WASTRES,QQYHRYPLS,3.03 / 2.82 / 3.70,3.18,3 of 9 (3.68)
QSSQSVLYESRNKNSPA,WASSRES,QQYHRLPLS,n.d. / n.d. / n.d.,n.d.,0 of 9
KSWQSVCYESRNKNSVA,SASTRES,QQYHRLPLS,n.d. / n.d. / n.d.,n.d.,2 of 9 (3.51)
KESQSVLWESRNKNSVA,WASTRES,CQYHRLPLS,3.90 / n.d. / n.d.,3.90,2 of 9 (5.50)
KSSQMVLYESRNKNSVA,WASTRVC,QQYHRLPLS,1.29 / 1.40 / 1.65,1.45,2 of 9 (4.77)
KSSQSVQYESRPKNSVA,WASTRES,QQYHRLPKS,n.d. / 3.09 / 3.58,3.33,3 of 9 (3.10)
KSSQSVLYESRNKNSVA,WAQTRSS,QQYHQLPLS,n.d. / 2.61 / n.d.,2.61,1 of 9 (3.05)
KSSQSVLYESRNKNVVA,WMSTRES,QQYHRLYLS,n.d. / n.d. / n.d.,n.d.,0 of 9
KSSQCVLYESRCKNSVA,WASTRES,QQYHRPPLS,3.88 / 4.28 / n.d.,4.08,1 of 9 (4.21)
KSSQQVLYESRNKNSVA,WASTRES,HQYPRLPLS,n.d. / 2.55 / n.d.,2.55,1 of 9 (3.68)
KSSQSVLYESRNKNSVA,PASTRES,QDYHRLPVS,n.d. / n.d. / n.d.,n.d.,0 of 9
KGSESVLYESRQKNSVA,WASTRES,QQYHRLPLS,n.d. / n.d. / n.d.,n.d.,0 of 9
KSSESVLYESRNKNSVA,WASTRQS,QQYHRLPLF,1.36 / 1.43 / 1.27,1.35,3 of 9 (4.13)
KSSQSQLYRSRNKNFVA,WASTRES,QQYHRLPLS,n.d. / n.d. / 3.25,3.25,1 of 9 (4.42)
KSSQYVLYESWNKLSVA,WASTRES,QQYHRLPLS,n.d. / n.d. / 3.36,3.36,1 of 9 (4.66)
KSSQSVLYESYNKESVA,WASTRES,QQYHRLPKS,0.84 / 1.02 / 0.85,0.90,0 of 9
KSSQSVLYESRNKNSVA,WASRRES,QQYALLPLS,1.62 / 1.92 / 2.32,1.95,2 of 9 (3.94)
KSSQHVLYESRNKNSVA,WASERES,QQYHRLPLS,1.74 / 1.84 / 2.05,1.88,0 of 9
KSSQSVLYESTNKDSVA,AASTRES,QQYHRLPLS,-0.23 / 0.04 / -0.11,-0.10,3 of 9 (4.83)
KTSQSVLYESRYKNSVA,WASKRES,QQYHRLPLS,n.d. / n.d. / n.d.,n.d.,0 of 9
KSSQCVLYESRNFNSVA,WASTRES,QQYHRLPLR,n.d. / n.d. / n.d.,n.d.,0 of 9
KQSQSVLYESRNKFSVY,WASTRES,QQYHRLPLS,n.d. / 4.53 / n.d.,4.53,0 of 9
KSSQSVLYESRNKNSVN,WGSTRDS,QQYHRLPLS,5.10 / 4.04 / n.d.,4.57,5 of 9 (4.77)
KSSQSYLYESMNKFSVA,WASTRES,QQYHRLPLS,n.d. / n.d. / n.d.,n.d.,0 of 9
KSSQSVLYESRNKNSVA,WASTMES,QQYIRLPNS,6.73 / 4.64 / n.d.,5.69,5 of 9 (4.49)
KSAQSVLYESRNKNSVA,WASTRES,QQVHRLPLS,n.d. / n.d. / n.d.,n.d.,0 of 9
FSSQSVLYESRNKNSVA,WAYTRES,QQYGRLPLS,n.d. / n.d. / 2.31,2.31,1 of 9 (3.94)
KSSQEVLYESRNKNSVA,WASTDES,QQYQRLPLS,n.d. / n.d. / n.d.,n.d.,0 of 9
KSSLSELYESRNKNSVW,WASTRES,QQYHRLPLS,n.d. / n.d. / n.d.,n.d.,0 of 9
KSSQSVLYESRNKNSCA,WASTRES,QQYHRLNLS,n.d. / n.d. / 3.77,3.77,2 of 9 (4.93)
KSSQSVLYFSCNKNSVA,WASTRAS,QQYHRLPLS,1.92 / 1.85 / 1.97,1.92,1 of 9 (3.42)

Again, the first 3 entries without any signal:

CDR-L1,CDR-L2,CDR-L3,"replicates, log10 nM","log10 Kd (nM), mean",signal with controls
VSSQSVLYESRNKRSVA,WASTRES,AQYHRLPLS,n.d. / n.d. / n.d.,n.d.,2 of 9 (3.66)
KSSQSVLYESRNKNSVA,WAPTRES,QQYHRKPLS,n.d. / n.d. / n.d.,n.d.,0 of 9
KSSQSVLYESRNKNSVH,SASTRES,QQYHRLPLS,n.d. / n.d. / n.d.,n.d.,1 of 9 (3.40)

Reference: Engelhart et al. 2022, doi:10.1038/s41597-022-01779-4. File: FLAb, binding data.